# OPERA 2.9 data: water solubility values

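OPERA's authors assembled the values from existing databases and did not measure them anew. A listed value is a point estimate from one report or more. Conditions of the individual experiments are not part of the data. Where a salt, mixture or single isomer is drawn, the source does not say that exactly this form was tested. Unmarked limits or estimates from the upstream databases cannot be ruled out.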

Solubility in water is on a log10 molar scale (set defined at 25 °C).

| compound | log solubility (log10 mol/L) |
|---|---|
| Clc1cc(Cl)c(Oc2cc(Cl)c(Cl)c(Cl)c2Cl)cc1Cl | -9.5 |
| Oc1ccnc2cccnc12 | -2.244 |
| Clc1cc(Cl)c(Cl)c(Oc2ccccc2)c1Cl | -7.02 |
| CCCCCCCC/C=C\CCCCCCCCNCCCNCCCNCCCN | -3.836 |
| CC(C)(c1ccc(OCCO)cc1)c1ccc(OCCO)cc1 | -3.452 |
| Cc1cc(-c2cc(C)c(N)cc2S(=O)(=O)O)c(S(=O)(=O)O)cc1N | -2.217 |
| Cc1cc(C(=O)NNCc2ccccc2)no1 | -2.461 |
| O=C1c2c(O)ccc(Nc3ccccc3)c2C(=O)c2c([N+](=O)[O-])ccc(O)c21 | -8.646 |
| CC(=O)OCC=C(C)C | -1.474 |
| O=C1C(CCS(=O)c2ccccc2)C(=O)N(c2ccccc2)N1c1ccccc1 (centres undefined) | -3.098 |
| Nc1nc(=O)c2c([nH]1)NC[C@@H](CNc1ccc(C(=O)N[C@@H](CCC(=O)O)C(=O)O)cc1)N2 | -3.219 |
| CC1C/C=C/CCCCCCCCC(=O)C1 (stereo partly drawn) | -4.684 |
| O=S([O-])c1ccccc1.O=S([O-])c1ccccc1.[Zn+2] | -2.593 |
| CN1C(CCl)Nc2cc(Cl)c(S(N)(=O)=O)cc2S1(=O)=O (centres undefined) | -3.777 |
| COc1nc(OC)nc(C2C(=O)Nc3c(F)cccc32)n1 (centres undefined) | -6.287 |
| COc1cc(CC(C(C)=O)C(C)=O)ccc1O | -1.786 |
| CCCc1nc2c(C)cc(-c3nc4ccccc4n3C)cc2n1Cc1ccc(-c2ccccc2C(=O)O)cc1 | -5.167 |
| C1=CCC(C2OCC3(CO2)COC(C2CC=CCC2)OC3)CC1 (centres undefined) | -5.242 |
| O=P(O)(O)O[P@@](=O)(O)O[P@@](=O)(O)OC[C@H]1O[C@@H](n2cnc3c(O)ncnc32)[C@H](O)[C@@H]1O | 0.25 |
| CCCCCCCCCCCCC(CCCCCCCCCC)C(=O)O (centres undefined) | -5.868 |
| C/C=C/C(=O)C1CCC(C)(C)C=C1C (stereo partly drawn) | -3.208 |
| NC(=O)c1ccc([N+](=O)[O-])cc1 | -1.5 |
| Fc1c(Cl)ncnc1Cc1ccccc1Cl | -3.476 |
| Cc1cc(N)nc(=O)[nH]1 | -1.47 |
| CCCCCCCC[N+](C)(C)CCCCCCCC.[Cl-] | -3.088 |
| CCc1ccc2c(c1)C(=O)c1ccccc1C2=O | -5.984 |
| CC=C(C(=O)O)c1ccc([N+](=O)[O-])cc1 | -2.546 |
| CC1(C)S[C@@H]2[C@H](N3C(=O)C(c4ccccc4)NC3(C)C)C(=O)N2[C@H]1C(=O)O (some centres not stated) | -2.881 |
| Clc1ccccc1-c1cccc2c1-c1ccccc1C2(c1ccccc1)c1ccccc1 | -7.553 |
| CC(=O)c1ccc(C)cc1 | -2.557 |
| CCCCCCCCCCCCCCCCCCOC(=O)c1cccnc1 | -3.429 |
| COc1cc(NC(=O)c2cc3ccccc3cc2O)c(OC)cc1Cl | -5.062 |
| Cc1cc(O)c(C(=O)N[C@@H](C(=O)N[C@@H]2C(=O)N3C(C(=O)O)=C(CSc4nnnn4C)CS[C@H]23)c2ccc(O)cc2)cn1 | -3.962 |
| O=C(O)C1(C(=O)Nc2ccc(Cl)cc2Cl)CC1 | -3.759 |
| C/C(=C\c1ccc(C)cc1)CO | -2.45 |
| CC(C)(C)S(=O)(=O)C[C@@H](Cc1ccccc1)C(=O)N[C@@H](Cc1cnc[nH]1)C(=O)N[C@@H](CC1CCCCC1)[C@@H](O)[C@@H](O)C1CC1 | -4.472 |
| O=C(O[C@@H](C(=O)O)[C@@H](OC(=O)c1ccccc1)C(=O)O)c1ccccc1 | -2.049 |
| CC1(C)CC2(CC(C)(C)N1)OC1(CCCCCCCCCCC1)NC2=O | -5.085 |
| C=CC(=O)OCC(CCC)CCCCC (centres undefined) | -5.827 |
| C=C(C)C(=O)OCCCCCC | -3.755 |
| CCCOC(=O)CCOCC | -4.02 |
| CSc1ncnc2nc[nH]c12 | -2.335 |
| Cn1cnc2c(=O)nc[nH]c21 | -1.796 |
| CC1=Nc2ccc(C(=O)O)cc2C1(C)C | -2.663 |
| CCCCC(CC)C(c1ccc(O)cc1)c1ccc(O)cc1 (centres undefined) | -7.776 |
| CCCn1c(=O)c(C)cn2nc(N)nc12 | -1.617 |
| C=CC(=O)OCCC(F)(F)C(F)(F)C(F)(F)C(F)(F)C(F)(F)C(F)(F)F | -6.041 |
| CC/C=C\CCOC(=O)c1ccccc1O | -4.644 |
| Cc1ccc(C(=O)OCCCl)cc1N=Nc1c(O)c(C(=O)Nc2cc(C)c(NC(=O)c3cc4ccccc4c(N=Nc4cc(C(=O)OCCCl)ccc4C)c3O)cc2C)cc2ccccc12 | -7.814 |
| C[C@]1(CO)[C@H]2CC[C@]1(C)C(=O)C2 | -0.279 |
| CC(C)C(C(=O)O)C(C)C(=O)O (centres undefined) | -1.435 |
| CC(=O)Oc1ccc([N+](=O)[O-])cc1 | -2.599 |
| CCOC(=O)C(C)NC(=O)c1ccco1 (centres undefined) | -1.105 |
| CC(=O)C[C@@H]1O[C@H](COC(C)=O)[C@@H](OC(C)=O)[C@H](OC(C)=O)[C@H]1OC(C)=O | -2.635 |
| CC(C)=CC(C)(C)CC(C)(C)C | -4.846 |

The last 6 entries again:

| compound | log solubility (log10 mol/L) |
|---|---|
| C[C@]1(CO)[C@H]2CC[C@]1(C)C(=O)C2 | -0.279 |
| CC(C)C(C(=O)O)C(C)C(=O)O (centres undefined) | -1.435 |
| CC(=O)Oc1ccc([N+](=O)[O-])cc1 | -2.599 |
| CCOC(=O)C(C)NC(=O)c1ccco1 (centres undefined) | -1.105 |
| CC(=O)C[C@@H]1O[C@H](COC(C)=O)[C@@H](OC(C)=O)[C@H](OC(C)=O)[C@H]1OC(C)=O | -2.635 |
| CC(C)=CC(C)(C)CC(C)(C)C | -4.846 |

From the experimental data distributed with OPERA 2.9.